The values below come from patent publication US7452908B2, “Amide derivatives” (Banyu Pharmaceutical Co., Ltd., priority 1999, dated 2008).

By UniProt entry, the sequences of proteins in these tests, tags left out. Where a name states a change or a piece, a line headed by the entry shows the natural chain unless it says otherwise.
UniProt P08483, whole entry: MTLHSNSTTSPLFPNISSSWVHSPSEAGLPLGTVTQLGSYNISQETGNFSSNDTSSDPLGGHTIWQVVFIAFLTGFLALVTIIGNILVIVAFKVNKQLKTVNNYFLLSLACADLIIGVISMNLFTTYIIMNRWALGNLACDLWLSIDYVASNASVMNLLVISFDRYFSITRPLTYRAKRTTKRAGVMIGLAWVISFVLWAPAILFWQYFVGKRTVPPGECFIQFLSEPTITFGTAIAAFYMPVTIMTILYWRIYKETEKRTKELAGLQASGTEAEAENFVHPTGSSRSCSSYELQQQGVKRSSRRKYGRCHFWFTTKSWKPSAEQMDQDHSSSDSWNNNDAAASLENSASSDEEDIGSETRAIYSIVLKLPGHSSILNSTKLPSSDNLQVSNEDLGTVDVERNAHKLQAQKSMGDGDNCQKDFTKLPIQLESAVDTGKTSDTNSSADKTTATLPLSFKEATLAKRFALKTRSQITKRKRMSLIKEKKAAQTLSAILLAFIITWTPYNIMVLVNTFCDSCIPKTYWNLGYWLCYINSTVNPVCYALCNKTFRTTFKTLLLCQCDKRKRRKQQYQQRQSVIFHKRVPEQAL
UniProt P10980, whole entry: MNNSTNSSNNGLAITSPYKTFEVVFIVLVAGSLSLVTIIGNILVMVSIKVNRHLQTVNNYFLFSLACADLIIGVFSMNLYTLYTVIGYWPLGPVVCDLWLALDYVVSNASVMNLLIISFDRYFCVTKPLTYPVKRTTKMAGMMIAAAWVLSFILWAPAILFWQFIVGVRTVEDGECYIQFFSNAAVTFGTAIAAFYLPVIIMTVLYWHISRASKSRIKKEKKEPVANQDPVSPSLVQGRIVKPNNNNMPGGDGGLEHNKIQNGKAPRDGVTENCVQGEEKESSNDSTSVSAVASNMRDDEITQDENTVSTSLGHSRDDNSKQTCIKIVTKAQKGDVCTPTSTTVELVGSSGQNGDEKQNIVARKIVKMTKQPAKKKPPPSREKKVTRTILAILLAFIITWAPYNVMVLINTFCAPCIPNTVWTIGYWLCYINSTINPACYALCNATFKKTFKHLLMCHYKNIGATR
UniProt P08482: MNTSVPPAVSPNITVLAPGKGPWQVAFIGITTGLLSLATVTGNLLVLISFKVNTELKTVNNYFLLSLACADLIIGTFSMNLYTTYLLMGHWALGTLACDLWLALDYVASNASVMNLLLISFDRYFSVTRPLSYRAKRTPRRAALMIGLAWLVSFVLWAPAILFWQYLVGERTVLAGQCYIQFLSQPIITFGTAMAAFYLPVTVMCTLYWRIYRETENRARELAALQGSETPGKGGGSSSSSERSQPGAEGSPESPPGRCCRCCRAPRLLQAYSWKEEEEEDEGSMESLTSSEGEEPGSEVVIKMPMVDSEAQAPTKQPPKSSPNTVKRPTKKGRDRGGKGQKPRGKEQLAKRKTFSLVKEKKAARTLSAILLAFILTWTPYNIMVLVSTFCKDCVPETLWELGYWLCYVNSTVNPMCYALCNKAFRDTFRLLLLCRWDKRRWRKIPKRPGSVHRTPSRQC

For one test, the target named is T1, muscarinic M3 receptor (Rattus norvegicus, UniProt P08483).
T1 construct: from tissue; host or cells: whole animal, male SD rats (in vivo)
Description: Antagonism to muscarinic M3 receptor in vivo: acetylcholine-induced airway resistance-increasing reaction in rats. Conditions: i.v., acetylcholine (50 μg/kg) 5 minutes after test compound. How it is done: Male SD strain rats (weighing 300-500 g) were anesthetized with urethane (1 g/kg) and α-chloralose (50 mg/kg) administered intraperitoneally. The airway and carotid artery of each rat were isolated by laryngotomy and cannulated. The carotid artery cannula was used as the test compound administration route. After suppressing spontaneous respiration by hypodermic administration of succinylcholine (5 mg/body), the rats were transferred into Plethysmograph-box (PLYAN, Buxco) and artificially ventilated under the conditions of ventilation rate of 6 ml/kg per breath and respiration rate of 90 breaths/min., using a pulmotor for small animals (Model 681, Harvard Co.). […] After about 10 minutes' stabilization period, the change in airway resistance induced by intravenous administration of acetylcholine (50 μg/kg) was measured twice at 5 minutes' interval. The change in airway resistance induced by the second acetylcholine administration was recorded as the pre-administration of the tested rat (pre-value). […] Five (5) minutes thereafter, acetylcholine was administered and whereby induced airway resistance change was measured. […] The changes in acetylcholine-induced airway resistance-increasing reaction (% of pre-value) caused by the tested compound and isotonic sodium chloride solution were calculated by the following Equation 1: […]

The next test has as its target T2, M2 receptor (Rattus norvegicus, UniProt P10980).
T2 construct: from tissue; host or cells: whole animal, male SD rats (in vivo)
Description: Antagonism to M2 receptor in vivo: acetylcholine-induced bradycardia reaction in rats. Conditions: i.v., acetylcholine (10 μg/kg) 5 minutes after test compound. How it is done:
Male SD strain rats (weighing 300-500 g) were anesthetized with urethane (1 g/kg) and α-chloralose (50 mg/kg) administered intraperitoneally. The airway, carotid artery and vein of each rat were isolated by laryngotomy and cannulated. The carotid artery and vein cannulae were made the routes for heart rate counting and drug administration. After suppressing the rats' spontaneous respiration by hypodermic administration of succinylcholine (5 mg/body), artificial ventilation was conducted under the conditions of ventilation rate of 6 ml/kg per breath and respiration rate of 90 breaths/min., using a pulmotor for small animals (Model 681, Harvard Co.). The variations in heart rate and blood pressure were measured with a heart rate counter (AP-601G, Nippon Koden Co.) and a tonometer (AP-641G, Nippon Koden Co.), via a pressure transducer (DX-312, Nippon Koden Co.). After about 10 minutes' stabilization period, heart rate change was induced by intravenous administration of acetylcholine (10 μg/kg), and the mean value of the change was recorded as the value before the drug administration (pre-value) of the body. […] Five minutes thereafter, acetylcholine was intravenously administered and whereby induced change in the heart rate was recorded. […]
Fifty (50%) inhibition dose (ED50; μg/kg) was calculated from the inhibition ratio of each dose of the tested compound. […]

A further test has as its target T3, M1 receptor (Rattus norvegicus, UniProt P08482).
T3 construct: from tissue; host or cells: whole animal, male SD rats (in vivo)
The test is described as follows: Antagonism to M1 receptor in vivo: McNeil-A-343-induced vasopressor reaction in cervical vertebrae-separated rats. The following applies: i.v., McNeil-A-343 (0.3 mg/kg) 5 minutes after test compound. The procedure: Male SD strain rats (weighing 300-500 g) were anesthetized with intraperitoneal administration of pentobarbital (50 mg/kg). Each rat's airway was cannulated by laryngotomy. Also by femoral incision, femoral artery and vein were isolated each and cannulated, which were used as routes for heart rate counting and chemical administration, respectively. Using a pulmotor for small animals (Type 7025, Ugo Basile Co.), artificial respiration was conducted under the conditions of ventilation rate of 6 ml/kg per breath and respiration rate of 90 breaths/min. The heart rate and blood pressure variations were measured with a heart rate counter (AT-601 G, Nippon Koden Co.) and a tonometer (AP-641G, Nippon Koden Co.), via a pressure transducer (DX-312, Nippon Koden Co.). After the blood pressure was stabilized, the cervical vertebrae was separated with an injection needle pricked from the occipital region. Afterthe average blood pressure dropped to not higher than 70 mmHg, test compound (test compound-treated group) or isotonic sodium chloride solution (control group) was intravenously administered. Five (5) minutes thereafter, McNeil-A-343 (0.3 mg/kg) was intravenously administered, and whereby induced hypertension variation was recorded. […] The inhibitory effect (inhibition ratio) of the test compound on the McNeil-A-343-induced vasopressor reaction was determined by the following equation: […]

For the molecule `CN1[C@@H]2CC[C@H]1C[C@@H](OC(=O)C(CO)c1ccccc1)C2` (stereo partly drawn) [atoropine, reference compound], the “ED50 Airway constriction M3” value at muscarinic M3 receptor is 4.3 µg/kg. Also, the “ED50 bradycardia M2” value at M2 receptor is 5.2 µg/kg. Besides, the “ED50 vasopressor M1” value on M1 receptor was found to be 19 µg/kg.
